Laboratory results: US20090180958A1, “Diagnostic and therapeutic agents” (Karyon-CTT Ltd., priority 2005, published 2009)
Where two headings read alike, the source gives them in different places.

Assays:
[1] = 275 nmol i.v., 15 min

## CH3C(O)-Ala-Arg-Arg-Pro-Lys-Leu-Asp-Gly-Ala-NHCH2CH2S-p-CH2CONH-benzyl-DTPA europium chelate [A48-Eu]
A549 tumors; A549 tumors, 275 nmol i.v., 15 min
  accumulation in tumors as compared to normal tissue: accumulated strongly and selectively
A549 tumors; A549 tumors, Eu content ratio
  tumor-to-muscle ratio: 15.7
A549 tumors; Tumour (A549), 275 nmol i.v. tail vein, 15 min circulation, perfused
  Eu content: 225 ± 28.6 ng/g
NCI-H520 tumors; NCI-H520 tumors, 275 nmol i.v., 15 min
  accumulation in tumors: significantly selective accumulation
NCI-H520 tumors; Tumour (NCI-H520), 275 nmol i.v. tail vein, 15 min circulation, perfused
  Eu content: 101 ± 18.1 ng/g
[1]; Brain
  Eu content: 11.3 ± 0.25 ng/g
[1]; Heart
  Eu content: 4.59 ± 1.38 ng/g
[1]; Intestine
  Eu content: 20.7 ± 4.72 ng/g
[1]; Kidney
  Eu content: 1072 ± 295 ng/g
[1]; Liver
  Eu content: 144 ± 33.8 ng/g
[1]; Lungs
  Eu content: 11.5 ± 4.80 ng/g
[1]; Muscle
  Eu content: 14.3 ± 4.77 ng/g
[1]; Ovaries
  Eu content: 30.2 ± 12.7 ng/g
[1]; Spleen
  Eu content: 27.7 ± 22.9 ng/g
